Assay results from ChEMBL document CHEMBL3396991 (Eur J Med Chem, 2015).

By UniProt entry, the sequences of proteins in these tests, tags left out. Where a name states a change or a piece, a line headed by the entry shows the natural chain unless it says otherwise.
UniProt P34975: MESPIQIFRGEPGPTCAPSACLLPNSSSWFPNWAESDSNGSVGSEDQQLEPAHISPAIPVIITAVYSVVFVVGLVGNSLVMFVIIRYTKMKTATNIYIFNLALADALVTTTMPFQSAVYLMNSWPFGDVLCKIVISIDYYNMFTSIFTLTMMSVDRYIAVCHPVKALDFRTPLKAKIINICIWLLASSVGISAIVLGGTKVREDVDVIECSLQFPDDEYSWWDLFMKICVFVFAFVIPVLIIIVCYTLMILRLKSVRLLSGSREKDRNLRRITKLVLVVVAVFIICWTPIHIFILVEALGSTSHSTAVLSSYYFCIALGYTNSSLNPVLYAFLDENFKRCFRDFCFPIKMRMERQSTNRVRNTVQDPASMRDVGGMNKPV

Target: Kappa-type opioid receptor (Rattus norvegicus, UniProt P34975)
Assay: Displacement of [3H]U69593 from rat recombinant kappa opioid receptor expressed in CHO cells after 60 mins

`CN(C(=O)Cc1ccc(Cl)c(Cl)c1)[C@H]1CCCC[C@@H]1N1CCCC1` showed a Ki of 0.36 nM.
